Sequences of proteins named here, by UniProt entry; tags and fusion partners are left off.
UniProt O00519, whole entry: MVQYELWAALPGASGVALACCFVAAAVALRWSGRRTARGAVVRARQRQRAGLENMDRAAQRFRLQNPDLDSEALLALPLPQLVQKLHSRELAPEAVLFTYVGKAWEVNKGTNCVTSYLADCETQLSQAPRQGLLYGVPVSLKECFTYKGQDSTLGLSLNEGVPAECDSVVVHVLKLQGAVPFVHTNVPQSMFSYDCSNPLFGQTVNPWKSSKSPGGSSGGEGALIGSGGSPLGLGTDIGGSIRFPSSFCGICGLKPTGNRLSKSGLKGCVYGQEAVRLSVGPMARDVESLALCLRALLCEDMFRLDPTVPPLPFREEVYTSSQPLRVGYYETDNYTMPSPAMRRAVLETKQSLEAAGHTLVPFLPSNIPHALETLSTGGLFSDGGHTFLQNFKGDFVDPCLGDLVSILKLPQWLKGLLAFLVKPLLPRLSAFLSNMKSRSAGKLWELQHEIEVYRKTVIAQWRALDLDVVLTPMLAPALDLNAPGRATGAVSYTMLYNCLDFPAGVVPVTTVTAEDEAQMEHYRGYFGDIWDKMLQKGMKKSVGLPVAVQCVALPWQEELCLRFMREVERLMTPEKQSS

According to ChEMBL document CHEMBL1151780, “Correlation of inhibitor effects on enzyme activity and thermal stability for the integral membrane protein fatty acid amide hydrolase” (Bioorg Med Chem Lett, 2008):

Target: Fatty-acid amide hydrolase 1 (Homo sapiens, UniProt O00519)

Row | SMILES | Tm
1 | O=C(O)c1cccc(-c2cnc(C(=O)CCCCCCc3ccccc3)o2)n1 | 64.3 °C
2 | O=C(O)c1cccc(-c2cnc(C(=O)CCc3ccc(-c4ccccc4)cc3)o2)n1 | 63.6 °C
